Antibody variant affinities, Ab-14 heavy chain, assay B

The measurements come from Li et al. 2023 (doi:10.1038/s41467-023-39022-2) through the FLAb antibody collection.

Target: peptide PDVDLGDISGINAS, taken from heptad repeat 2 (HR2) of SARS-CoV-2 spike.

Ab-14 is the parent antibody, in scFv form: VH, then a (GGGGS)3 linker, then VL. The light chain is unchanged in all variants.
VH: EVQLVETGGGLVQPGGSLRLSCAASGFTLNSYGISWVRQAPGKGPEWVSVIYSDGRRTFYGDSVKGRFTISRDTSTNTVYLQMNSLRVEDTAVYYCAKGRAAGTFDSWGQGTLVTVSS
VL: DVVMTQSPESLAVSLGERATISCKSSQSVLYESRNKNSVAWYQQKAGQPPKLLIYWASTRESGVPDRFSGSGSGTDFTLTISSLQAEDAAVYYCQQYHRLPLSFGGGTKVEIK

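Designed CDR sequences, proposed from the first random library and measured here. Group labels follow the data file (Ctrl: baseline library sampled from a position-specific scoring matrix, with some repeated check sequences; GPLM: also part of the Gaussian process libraries; HC: hill climbing; Gen: genetic algorithm; a sequence that several methods proposed may carry one label only). The scFvs were displayed on barcoded MATa yeast, the peptide on MATalpha yeast. After mating in shaken culture at 30 °C for 16 h, diploids were selected and their barcode pairs sequenced. Scores were corrected for input abundance and mapped to Kd with protein pairs of known affinity run in the same pool. The assay was run in six technical replicates.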

Variants are written as CDR1, CDR2 and CDR3 of the heavy chain (limits as in the source). Parent: GFTLNSYGIS, VIYSDGRRTFYGDSVK, GRAAGTFDS.
Numbers give log10(Kd / nM), so 0 is 1 nM and 3 is 1 µM. Smaller is tighter.
Replicates are averaged; those with no signal do not enter the mean.
"ND" means that the variant was in the library but no mating with the target was seen in that replicate; the authors take this as a sign of poor binding, and no number exists.
A sequence that the file lists under several names has all its replicates listed entry by entry, parted by semicolons.

| CDR-H1 | CDR-H2 | CDR-H3 | group | replicates, log10 nM | mean log10 Kd (nM) | signal with controls |
|---|---|---|---|---|---|---|
| TFNLNEYGIS | VIYSDGCRTFYGDSVK | GRAAGTFDT | Ctrl | ND ND ND ND ND ND | ND | 0/18 |
| GFTLNSYGIS | VIYSDGRRTFYGDSVK | GREAGTFDS | Ctrl+GPLM_Gen | ND ND ND ND ND ND; 1.14 0.75 0.69 0.85 1.02 1.17 | 0.94 | 0/36 |
| GFTLNSYGIS | VIYSDGRRTFYSDSVD | GQAAGTFDL | Ctrl | 0.32 1.01 -0.28 0.27 0.00 0.55 | 0.31 | 0/18 |
| GDTLNSYGIS | VIYSDGRRTFYGDSVK | GRPAGTFKS | Ctrl | ND ND ND ND ND ND | ND | 1/18 (2.73) |
| GYTINSYGIS | VIYSDGRRTFYGDSVK | GRCAGTWDS | Ctrl | ND ND ND ND ND ND | ND | 0/18 |
| GFTNNSYGIS | VIYSDGSRTFYMDSVK | GRAAGTFDS | Ctrl | ND ND ND ND ND ND | ND | 0/18 |
| GFDLNSYGIS | VIYSDGRRTFYGDQVK | GRAAGAFDS | Ctrl | ND ND ND ND ND ND | ND | 0/18 |
| GFPLNSYGIS | VIYSDGRRTFYGDSVK | GYAAGTFDS | Ctrl | ND 1.52 ND ND 1.48 ND | 1.50 | 0/18 |
| GFTLNEYGIS | VIYSDGRRTFYGDDVK | GDAAFTFDV | Ctrl | 0.54 1.26 0.89 0.78 1.28 1.32 | 1.01 | 0/18 |
| LFTLNSYGIS | VIYSDGERTFYDDSVK | GNAAGYFDS | Ctrl | ND ND ND ND ND ND | ND | 0/18 |
| GFTLNEYGIS | VIYSDGERTQYGDSVK | GRAHGTFDS | Ctrl | ND ND ND ND ND ND | ND | 0/18 |
| GFTLNSYGIS | VIYADGFRTFYGDSVK | GREAGQFDS | Ctrl | ND ND ND ND ND ND | ND | 0/18 |
| GFTLNEYGIH | VIYSDGRRTGYGDSVK | GRAAGTFDS | Ctrl | ND ND ND ND ND ND | ND | 0/18 |
| GFTLNSYGIS | VIYFDGRRTFYGDSVK | GQAAATFDS | Ctrl | ND ND ND ND ND ND | ND | 0/18 |
| GFTLLSYGIS | VIYSDGRRTFYGDSVK | GGAAGDFDS | Ctrl | ND ND ND ND ND ND | ND | 1/18 (2.14) |
| GFTLNSYGIS | VIYSDGRRTFYGDSVK | GRAAGTTDT | Ctrl | 2.20 1.91 1.58 ND 1.98 ND | 1.92 | 0/18 |
| GFTLGSYGIS | VIYSDGRRTFYGDSVK | GRAAGTFDS | Ctrl | ND ND ND ND 2.14 ND | 2.14 | 0/18 |
| GFTLNTYGIS | VIYADGRRTFYGDSVK | GRRRGTFDS | Ctrl | ND ND ND ND ND ND | ND | 1/18 (1.33) |
| GFTLTKYGIS | VIYSDGRRTFYGDKVK | GGAMGTFDV | Ctrl | ND ND ND ND ND ND | ND | 0/18 |
| GFTLNDYGIS | VIYSDGRRTWYGDSVK | GRAAGTFDS | Ctrl+GPLM_HC | 1.06 0.72 0.70 0.51 0.99 0.82; 1.30 1.19 2.29 1.63 2.07 1.42 | 1.22 | 1/36 (2.49) |
| GFNVNSYGIS | VIYSDGRRTFYGDSVK | GWAASTFDS | Ctrl | ND ND ND ND ND ND | ND | 0/18 |
| GTTINSYGIS | VIYSDGRRTFYSDSVK | GRAAGTFDS | Ctrl | ND 2.38 ND ND ND 0.74 | 1.56 | 0/18 |
| GFTINSYGIS | VIYSDGRRTFYGDSVK | GIAAGTFDS | Ctrl | ND ND ND ND ND ND | ND | 0/18 |
| GFTLNSYGIS | VIYSDGMRTFYGDSVK | GRAAGGFDS | Ctrl | ND ND ND ND ND ND | ND | 0/18 |
| GTSLNSYGSS | VIYSDGRRTFYADSVK | GFAATSFDS | Ctrl | ND ND ND ND ND 2.91 | 2.91 | 2/18 (1.63) |
| GFNLNSYGIS | VIYSDGRRTIYGDSVK | GYAAFTDDS | Ctrl | ND ND ND ND ND ND | ND | 0/18 |
| GFTLNEYGIS | VIYSDGRRTFYGDSVK | GRAAGTFRT | Ctrl | ND ND ND ND ND ND | ND | 0/18 |
| GFHLNSYGIS | VIYADGRRTQYGDSVK | GRAAGTFDS | Ctrl | ND ND ND ND ND ND | ND | 0/18 |
| GHDLNSYGIS | VIYSDGRRTFYIDSVE | GRAAGTFDS | Ctrl | 1.34 1.71 1.37 2.59 3.18 2.03 | 2.04 | 0/18 |
| GFTLNEAGIS | VIYSDGRRTIYGDSVK | GRAIGTFDS | Ctrl | ND ND ND ND ND ND | ND | 0/18 |
| LFTLNSYGIS | VIYSDGRRTMYGDEVK | GSAAGTFDS | Ctrl | ND ND ND ND ND ND | ND | 0/18 |
| GFTLNSYGIS | VIYSDGRRTFYMDSVK | ERAAWTFDS | Ctrl | ND ND ND ND ND ND | ND | 0/18 |
| GFTLNSYGIS | VIYSDGYRTFYGDSVK | GEAAGTFDS | Ctrl | ND 2.36 1.68 ND 1.70 ND | 1.91 | 0/18 |

2 of these entries, quoted again:

{"CDR-H1": "GYTINSYGIS", "CDR-H2": "VIYSDGRRTFYGDSVK", "CDR-H3": "GRCAGTWDS", "group": "Ctrl", "replicates, log10 nM": "ND ND ND ND ND ND", "mean log10 Kd (nM)": "ND", "signal with controls": "0/18"}
{"CDR-H1": "GFTINSYGIS", "CDR-H2": "VIYSDGRRTFYGDSVK", "CDR-H3": "GIAAGTFDS", "group": "Ctrl", "replicates, log10 nM": "ND ND ND ND ND ND", "mean log10 Kd (nM)": "ND", "signal with controls": "0/18"}

Values of this round are not directly comparable with the first-round values of the same sequences.
The authors' rule: three or more of the six replicates give a measured affinity, fewer mean a poor binder.
Background: pairings of all heavy chain designs with three empty control strains gave a value in 1% of cases (median 2.08, 5th percentile 0.84). Values in that range, when seen in few replicates, are hard to tell from nonspecific mating. Also given: how often the same scFv was detected with the empty control strains, with their mean in brackets.
Of ten entries with the parent sequence, four were seen in most replicates (averages 0.34 to 2.37), three in one and three in none, so single entries are noisy.